Among the data in patent US10695279B2, “Peptide having skin-whitening activity and use thereof” (CAREGEN CO., LTD., priority 2017, dated 2020) are cytotoxicity values, retold here.

The test system of the data set is melanin-forming cells (B16F10 cell line). The note with it: B16F10, 1 uM to 200 uM, 72 hours, MTT, FIG. 1.

With “Feruloyl-Ile-Trp-Ser-Leu-Asp-Thr-Gln-Tyr-Gly-Gly-Arg-Gly-Asp-COOH”, the cytotoxicity entry was “no cytotoxicity was observed”.
